FireProtDB (doi:10.1093/protein/gzw014)

Conditions: Homo sapiens; pH 6.5; 21.5 °C; Urea; Fluorescence; Potassium phosphate 50 mM; KCl 100 mM; transition: 2; reversible: yes; whole UniProt chain shown

B1: Peptidyl-prolyl cis-trans isomerase FKBP1B wild type, P68106 (protein)
chain: MGVEIETISPGDGRTFPKKGQTCVVHYTGMLQNGKKFDSSRDRNKPFKFRIGKQEVIKGFEEGAAQMSLGQRAKLTCTPDVAYGATGHPGVIPPNATLIFDVELLNLE
For B1, the unfolding free energy was 5.07 kcal/mol.
